Where a name gives a salt, the structure may show the parent alone. Read-outs that look alike come from different tables or passages of the source.
Molecular target: SARS-CoV-2 3CLpro (Severe acute respiratory syndrome coronavirus 2, UniProt P0DTD1)
Assay: biochemical
Conditions: 4 h
[1] = read-out: Replicate_1 (LOPAC screen with protease)
[2] = read-out: Replicate_2 (LOPAC screen with protease)
[3] = read-out: mean (LOPAC screen with protease)

SMILES	inhibition at 5 µM (read-out: Replicate_1) [%]	inhibition at 5 µM (read-out: Replicate_2) [%]	inhibition at 5 µM (read-out: mean) [%]	inhibition at 5 µM [1] [%]	inhibition at 5 µM [2] [%]	inhibition at 5 µM [3] [%]
[H]/N=C(/NC)NCCC[C@H](N)C(=O)O [NG-Monomethyl-L-arginine acetate]	3.11	2.2	2.66			
CC1=C(/C=C/C(C)=C/C=C/C(C)=C\C(=O)O)C(C)(C)CCC1 [13-cis-retinoic acid]	0.251	1.13	0.693			
COc1cc2c(c(OC)c1OC)-c1ccc(OC)c(=O)cc1[C@@H](NC(C)=O)CC2 [Colchicine]	1.98	-0.526	0.728			
COc1cc2c(cc1O)CC[C@@H]1[C@@H]2CC[C@]2(C)[C@@H](O)CC[C@@H]12 [2-methoxyestradiol]	1.84	3.11	2.47			
CCC1(c2ccccc2)C(=O)NCNC1=O [Primidone]	-0.0045	-1.59	-0.8			
OCc1cc(C(O)CNCCCCCCOCCCCc2ccccc2)ccc1O (stereo not drawn) [Salmeterol xinafoate]	2.01	2.68	2.35			
O=C1CN(/N=C/c2ccc(-c3ccc([N+](=O)[O-])cc3)o2)C(O)=N1 [Dantrolene sodium]	5.37	2.64	4.01			
CN1CCN2c3ccccc3Cc3ccccc3C2C1 (stereo not drawn) [Mianserin hydrochloride]				11.1	9.35	10.2
COc1cc2nc(N3CCN(C(=O)C4CCCO4)CC3)nc(N)c2cc1OC (stereo not drawn) [Terazosin hydrochloride]	2.48	2.75	2.62			
CNCC[C@@H](Oc1ccccc1C)c1ccccc1 [Tomoxetine]	0.333	1.98	1.16			
NS(=O)(=O)c1cc(C(=O)O)c(NCc2ccco2)cc1Cl [Furosemide]	4.58	1.05	2.82			
C[C@]12C[C@H](O)[C@H]3[C@@H](CCC4=CC(=O)CC[C@@]43C)[C@@H]1CC[C@@H]2C(=O)CO [Corticosterone]	0.575	0.162	0.369			
CCc1cccc(N(C)C(N)=Nc2cccc3ccccc23)c1 [CNS-1102]	1.29	-0.535	0.379			
O=c1ccc2ccc(O)c(O)c2o1 [Daphnetin]	4.21	7.22	5.72			
CCCN(CCC)CCc1cccc2c1CC(=O)N2 [Ropinirole hydrochloride]	2.32	-2.17	0.0748			
Oc1ncnc2[nH]ncc12 [Allopurinol]	1.76	2.63	2.19			
CC[C@]1(O)C[C@H]2CN(CCc3c([nH]c4ccccc34)[C@@](C(=O)OC)(c3cc4c(cc3OC)N(C=O)[C@H]3[C@@](O)(C(=O)OC)[C@H](OC(C)=O)[C@]5(CC)C=CCN6CC[C@]43[C@@H]65)C2)C1 [Vincristine sulfate]	-1.48	1.23	-0.124			
CN1CCc2cccc3c2[C@H]1Cc1ccc(O)c(O)c1-3 [Apomorphine hydrochloride hemihydrate]				99.5	101	100
OCCN(CCO)c1nc(N2CCCCC2)c2nc(N(CCO)CCO)nc(N3CCCCC3)c2n1 [dipyridamole, reference compound]	-17	-19.1	-18			
CC(C)(C)[C@]1(O)CCN2C[C@H]3c4ccccc4CCc4cccc(c43)[C@@H]2C1 [(+)-Butaclamol hydrochloride]	2.49	-1.87	0.31			
C#CCN(C)Cc1ccccc1 [Pargyline hydrochloride]	0.662	-1.07	-0.205			

From publication PMC7587356, “High-Throughput Screening for Inhibitors of the SARS-CoV-2 Protease Using a FRET-Biosensor” (Molecules, 2020)
